Reference: US10919914B2, “Heterocyclic compounds and uses thereof” (Infinity Pharmaceuticals, Inc., priority 2016, dated 2021)

The chains behind the UniProt entries cited, without tags or fusion partners. Where a name states a change or a piece, a line headed by the entry shows the natural chain unless it says otherwise.
UniProt P48736: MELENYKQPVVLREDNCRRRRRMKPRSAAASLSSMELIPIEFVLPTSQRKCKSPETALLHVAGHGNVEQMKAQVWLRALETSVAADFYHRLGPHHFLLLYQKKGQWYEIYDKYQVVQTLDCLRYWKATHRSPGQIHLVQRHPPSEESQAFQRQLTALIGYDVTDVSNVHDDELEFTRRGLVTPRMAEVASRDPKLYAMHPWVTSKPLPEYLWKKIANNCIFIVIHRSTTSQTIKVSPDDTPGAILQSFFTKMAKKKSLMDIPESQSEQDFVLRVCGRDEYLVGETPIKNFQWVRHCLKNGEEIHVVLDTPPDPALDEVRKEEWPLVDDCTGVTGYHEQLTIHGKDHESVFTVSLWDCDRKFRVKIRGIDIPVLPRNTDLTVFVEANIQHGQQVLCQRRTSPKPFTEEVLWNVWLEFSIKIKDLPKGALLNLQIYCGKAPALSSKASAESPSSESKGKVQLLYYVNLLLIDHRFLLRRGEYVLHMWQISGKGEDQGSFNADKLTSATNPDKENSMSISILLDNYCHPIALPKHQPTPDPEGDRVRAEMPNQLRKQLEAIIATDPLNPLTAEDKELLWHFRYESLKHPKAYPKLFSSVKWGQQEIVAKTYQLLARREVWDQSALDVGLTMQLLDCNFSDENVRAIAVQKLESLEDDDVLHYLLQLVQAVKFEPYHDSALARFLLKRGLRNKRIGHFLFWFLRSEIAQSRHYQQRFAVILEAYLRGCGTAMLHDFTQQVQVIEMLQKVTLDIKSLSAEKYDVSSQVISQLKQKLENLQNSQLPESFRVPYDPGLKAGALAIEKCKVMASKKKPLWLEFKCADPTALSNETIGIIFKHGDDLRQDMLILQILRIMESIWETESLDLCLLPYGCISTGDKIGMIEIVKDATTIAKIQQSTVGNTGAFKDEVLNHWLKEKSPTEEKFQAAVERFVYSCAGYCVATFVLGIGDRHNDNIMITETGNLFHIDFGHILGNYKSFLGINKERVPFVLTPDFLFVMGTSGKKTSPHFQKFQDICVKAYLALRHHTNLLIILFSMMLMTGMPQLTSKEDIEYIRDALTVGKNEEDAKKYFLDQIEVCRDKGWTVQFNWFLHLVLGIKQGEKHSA

Molecular target: PI3K γ (Homo sapiens (Human), UniProt P48736)
Assay: PI3-Kinase HTRF assay
Type: biochemical
Excerpt: A PI3-Kinase HTRF® assay kit (cat No. 33-016) purchased from Millipore Corporation is used to screen compounds provided herein. This assay uses specific, high affinity binding of the GRP1 pleckstrin homology (PH) domain to PIP3, the product of a Class 1A or 1B PI3 Kinase acting on its physiological substrate PIP2. During the detection phase of the assay, a complex is generated between the GST-tagged PH domain and biotinylated short chain PIP3. The biotinylated PIP3 and the GST-tagged PH domain recruited fluorophores (Streptavidin-Allophycocyanin and Europium-labeled anti-GST respectively) to form the fluorescence resonance energy transfer (FRET) architecture, generating a stable time-resolved FRET signal. […]
PI3 Kinase α, γ or δ activity is assayed using the PI3 Kinase HTRF® assay kit (catalogue No. 33-016) purchased from Millipore Corporation. […] The assay is carried out in 384-well format and detected using a Perkin Elmer EnVision Xcite Multilabel Reader. […] IC50 values are determined using a nonlinear regression model available in GraphPad Prism 5.
Other commercial kits or systems for assaying PI3-K activities are available. […] The plate is sealed, incubated for 1 hour at room temperature, and then read on an appropriate plate reader. Data is analyzed and IC50s are generated using GraphPad Prism 5.

IC50: 100 to 500 nM
SMILES: C[C@H](NC(=O)c1c(N)nn2ccccc12)c1cc2cccc(Cl)c2c(=O)n1-c1ccccc1 [Compound 31]
